The list is not random: actives were taken first. Their share in the collection is about 2.1%.
PGC1a acetyl inh – PGC1a acetylation modulation, inhibitor mode; U2OS PGC1a acetylation, AlphaScreen anti-acetyl-lysine; with virally co-expressed GCN5 acetyltransferase; inhibition, % at 15.6 µM; 350,000 compounds, 0.17% hits; AID 651687;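 active = every replicate shows inhibition of at least 40%; inconclusive = mean inhibition at least 40% but some replicate below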
MITF TRPM1 inh – reduces MITF-dependent TRPM1 promoter luciferase signal; SK-MEL-5 TRPM1 promoter luciferase, 24 h; inhibition, % at 12.5 µM; 330,000 compounds, 0.83% hits;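 active = mean inhibition across replicates of 60% or more, whatever share of single replicates reaches that level; inconclusive = some that reach 60%, reason not given; inactive = mean inhibition across replicates below 60%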
Yeast UUG start-1 – alters start codon recognition fidelity in yeast | S. cerevisiae UUG-firefly luciferase reporter, luminescence/redox ratio | activity score, % at 18.7 µM | hit rate 0.13% among 350,000 | AID 602363;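 active means replicate mean at a twofold rise or more, about +100% in these data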;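 further: firefly luciferase made from a UUG start codon reports start codon fidelity; reporter light over untreated wells divided by growth signal over untreated wells; some hits fall short of that in this replicate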
Wnt bcat act – Wnt/beta-catenin pathway activation. Wnt/beta-catenin reporter cell assay, activator, plate reader. activation, % at 9.35 µM. 300,000 compounds, 1.2% hits; in the data active = activation above about 30%, passing the limit was not always enough; inconclusive = no clear call, values can overlap the other calls
MITF act – MITF TRPM1 promoter activation in melanoma cells. SK-MEL-5 TRPM1-promoter luciferase, 24 h; % of positive control, neutral wells = 0. activation, % at 12.5 µM. 300,000 compounds, 0.75% hits. AID 588334;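 active = mean activation of at least 80% with every replicate also reaching 80%; inconclusive = mean reaches 80% but some replicate falls short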
miR122 inh – inhibitors of miR-122 in Huh7 cells; Huh7 miR-122 Renilla luciferase sensor, 48 h; neutral wells = 0, positive control = 100; AID 602342; 340,000 compounds, 0.3% hits; activation (reporter increase), % at 12.5 µM;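 active = mean replicate activation score at least 90 and every replicate individually at or above 90; inconclusive = only one of the two criteria met; inactive = neither criterion met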;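 also: higher luciferase means less miR-122 activity so hits act as miR-122 inhibitors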
Yeast UUG start-2 – modulators of start codon recognition fidelity in yeast; shares compounds with Yeast UUG start-1; S. cerevisiae UUG-start firefly luciferase, luminescence, 4 h; 100% means double the DMSO signal; activation, % at 38 µM; 540 tested, under 10 active;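 active = signal increase whose fitted curve reaches an absolute level of 40 at a concentration under 10 µM; inactive = activity opposite to the expected increase, or the rest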
C2C12 COX5a inh – reduces COX5a expression driven by PGC-1a in C2C12 myotubes | AID 743461 | maximal activity, % | C2C12 myotubes PGC-1a adenovirus, COX5a qPCR | shares compounds with PGC1a acetyl inh | 45 tested, under 10 active;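 active = fitted dose curve reaching 40% activity at or below the highest valid dose tested; inconclusive = flat fit between 30% and 70%, or an unusable fit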
AID743468 – change in PGC-1a target gene PDK4 expression, dose response, C2C12 myotubes, RT-qPCR, cherry-pick; shares compounds with PGC1a acetyl inh; PDK4 expression increase, % at 19.5 µM; PGC-1a adenovirus, PDK4 mRNA qPCR; 45 tested, under 10 active;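 active = fitted curve reaching a 40% PDK4 expression rise at or below the top valid tested dose; inconclusive = no clear call, values can overlap the other calls; inactive = the rest, including shifts the wrong way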
A number is an active result.

How did Cc1noc(C)c1NC(=O)N(C)C[C@@H]1Oc2ccc(NS(=O)(=O)c3ccc(F)cc3)cc2C(=O)N([C@H](C)CO)C[C@H]1C do in these assays?
PGC1a acetyl inh: inactive; Yeast UUG start-1: inactive; miR122 inh: inactive

What do the screens show for `O=C(CSc1c[nH]c2ccccc12)N1CCCc2ccccc21`?
PGC1a acetyl inh: inactive; MITF TRPM1 inh: inactive; Yeast UUG start-1: inactive; Wnt bcat act: inactive; MITF act: inactive; miR122 inh: inactive

How did O=C(Cc1c[nH]c2ccccc12)N1CCc2ccccc21 do in these assays?
MITF TRPM1 inh: inactive; Yeast UUG start-1: 344.1; MITF act: inactive; miR122 inh: inactive; Yeast UUG start-2: inactive

What do the screens show for `C[C@@H]1CN([C@@H](C)CO)C(=O)c2cc(C#CCC3CCCC3)cnc2O[C@@H]1CN(C)C(=O)CN(C)C`?
PGC1a acetyl inh: inactive; Yeast UUG start-1: 124.5; miR122 inh: inactive; Yeast UUG start-2: inactive

Results for Cc1ccc(-c2cnc3c(c2)C(=O)N([C@@H](C)CO)C[C@@H](C)[C@H](CN(C)C(=O)CN(C)C)O3)cc1 ?
PGC1a acetyl inh: inactive; Yeast UUG start-1: 162.7; Yeast UUG start-2: inactive

What do the screens show for `Cc1ccc(OCCCCn2c(CO)nc3ccccc32)cc1`?
PGC1a acetyl inh: inactive; MITF TRPM1 inh: inactive; Yeast UUG start-1: 130.0; Wnt bcat act: inactive; MITF act: inactive; miR122 inh: inactive; Yeast UUG start-2: inactive

Results for O=c1cc(CCc2ccccc2)[nH]c(=O)[nH]1 ?
Wnt bcat act: inactive

Results for O=c1cc(CSc2ccccn2)[nH]c(=O)[nH]1 ?
PGC1a acetyl inh: inconclusive; MITF TRPM1 inh: inactive; Yeast UUG start-1: inactive; Wnt bcat act: inactive; miR122 inh: inactive; C2C12 COX5a inh: inactive; AID743468: inactive

Results for COc1cccc(S(=O)(=O)N2C[C@@H]3N[C@H](C2)C3c2ccc(-c3ccccc3OC)cc2)c1 (stereo partly specified) ?
PGC1a acetyl inh: inactive

How did COc1ccccc1-c1ccc([C@@H]2[C@@H]3CN(S(=O)(=O)c4ccc(-c5ccccc5)cc4)C[C@H]2N3)cc1 do in these assays?
PGC1a acetyl inh: inactive; C2C12 COX5a inh: inactive; AID743468: inactive

How did CO[C@H]1CN(C)C(=O)c2ccc(NC(=O)c3ccno3)cc2OC[C@H](C)N(C(=O)C2CCC2)C[C@H]1C do in these assays?
PGC1a acetyl inh: inactive

Results for O=C(Nc1ccc(C(F)(F)F)cc1)N1C[C@@H]2N[C@H](C1)C2c1ccc(-c2ccccc2)cc1 (stereo partly specified) ?
PGC1a acetyl inh: inconclusive; C2C12 COX5a inh: inactive; AID743468: inactive

Results for CN1C(=O)c2cc(NC(=O)c3ccc4c(c3)OCO4)ccc2OC[C@@H]2O[C@H](CC(=O)O)CC[C@@H]21 ?
PGC1a acetyl inh: inactive; Yeast UUG start-1: inactive; miR122 inh: inactive

How did O=C(C[C@H]1CC[C@@H](NC(=O)c2ccccc2)[C@H](CO)O1)Nc1ccc(-c2ccccc2)cc1 do in these assays?
PGC1a acetyl inh: 43.7; Yeast UUG start-1: inactive; miR122 inh: inactive; C2C12 COX5a inh: inactive; AID743468: inactive

How did O=C(C[C@H]1CC[C@H](NC(=O)c2ccccc2)[C@@H](CO)O1)Nc1ccc(-c2ccccc2)cc1 do in these assays?
PGC1a acetyl inh: inactive; Yeast UUG start-1: inactive; miR122 inh: inactive

How did COCC(=O)N[C@@H]1C=C[C@H](CC(=O)NCc2ccc(Cl)cc2)O[C@H]1CO do in these assays?
PGC1a acetyl inh: inactive

Results for CCN1CCN(Cc2ccc(NC(=O)c3cc(NC(=O)c4cncc(-c5ccc(C#N)cc5)c4)cc(OC)c3)cc2C(F)(F)F)CC1 ?
PGC1a acetyl inh: 85.9; MITF TRPM1 inh: 96.9; Yeast UUG start-1: inactive; Wnt bcat act: inactive; MITF act: inactive; miR122 inh: inactive; C2C12 COX5a inh: inactive; AID743468: inactive

How did CC[C@H](C)[C@H](NC(=O)c1ccc(Cl)cc1)C(=O)OCC(=O)c1ccc2c(c1)NC(=O)CO2 do in these assays?
PGC1a acetyl inh: inconclusive; MITF TRPM1 inh: inactive; Yeast UUG start-1: inactive; Wnt bcat act: inactive; MITF act: inactive; miR122 inh: inactive; C2C12 COX5a inh: inactive; AID743468: inactive

What do the screens show for `CC(C)[C@H](NC(=O)c1ccccc1)C(=O)OCC(=O)c1ccc2c(c1)NC(=O)CO2`?
PGC1a acetyl inh: inactive; MITF TRPM1 inh: inactive; Yeast UUG start-1: inactive; MITF act: inactive; miR122 inh: inactive

What do the screens show for `CC1=C(Cl)C2=NS(=O)(=O)CCN2C=C1Cl`?
PGC1a acetyl inh: inconclusive; MITF TRPM1 inh: inactive; Wnt bcat act: inactive; MITF act: inactive; miR122 inh: inactive; C2C12 COX5a inh: inactive; AID743468: inactive

Results for Nc1ncnc(NCc2ccccc2)c1[N+](=O)[O-] ?
MITF TRPM1 inh: inactive; Wnt bcat act: inactive; MITF act: inactive

How did Nc1ncnc(NCc2ccc(F)cc2)c1[N+](=O)[O-] do in these assays?
PGC1a acetyl inh: 49.7; MITF TRPM1 inh: inactive; Wnt bcat act: inactive; MITF act: inactive; C2C12 COX5a inh: inactive; AID743468: inactive

Results for CCOc1cc(CNC2CCCC2)cc(Cl)c1OCc1ccc(F)cc1 ?
PGC1a acetyl inh: 78.4; MITF TRPM1 inh: inactive; Yeast UUG start-1: inactive; MITF act: inactive; C2C12 COX5a inh: inactive; AID743468: inactive

How did Cc1nc2ccccn2c1C(=O)/C=C/c1ccc(F)cc1 do in these assays?
PGC1a acetyl inh: inconclusive; MITF TRPM1 inh: inactive; Yeast UUG start-1: inactive; MITF act: inactive; miR122 inh: inactive; C2C12 COX5a inh: inactive; AID743468: inactive

How did C[C@H]1CN([C@@H](C)CO)S(=O)(=O)c2ccc(-c3ccccc3)cc2O[C@@H]1CN(C)Cc1cccc(F)c1 do in these assays?
PGC1a acetyl inh: 48.1; Yeast UUG start-1: inactive; miR122 inh: inactive; C2C12 COX5a inh: inactive; AID743468: inactive

What do the screens show for `C[C@H](CO)N1C[C@H](C)[C@@H](CN(C)C(=O)C2CCCCC2)Oc2cc(C#Cc3ccncc3)ccc2S1(=O)=O`?
PGC1a acetyl inh: inconclusive; Yeast UUG start-1: inactive; miR122 inh: inactive; C2C12 COX5a inh: inactive; AID743468: inactive

What do the screens show for `COc1ccccc1C#Cc1ccc2c(c1)O[C@@H](CN(C)Cc1cccnc1)[C@H](C)CN([C@H](C)CO)S2(=O)=O`?
PGC1a acetyl inh: 43.2; miR122 inh: inactive; C2C12 COX5a inh: inactive; AID743468: inconclusive

Results for C[C@@H]1CN([C@H](C)CO)S(=O)(=O)c2ccc(C#Cc3ccncc3)cc2O[C@H]1CN(C)C(=O)C1CCCCC1 ?
PGC1a acetyl inh: inactive; Yeast UUG start-1: inactive; miR122 inh: inactive

Screens from PubChem BioAssay.
